From publication PMC3328272, “HIV-1 Nef interaction influences the ATP-binding site of the Src-family kinase, Hck” (BMC Chemical Biology, 2012)

Sequences of proteins named here, by UniProt entry; tags and fusion partners are left off. Residues count along the entry.
UniProt P08103, 76-524 T331A/Q521E/Q522E/Q523I limits assumed: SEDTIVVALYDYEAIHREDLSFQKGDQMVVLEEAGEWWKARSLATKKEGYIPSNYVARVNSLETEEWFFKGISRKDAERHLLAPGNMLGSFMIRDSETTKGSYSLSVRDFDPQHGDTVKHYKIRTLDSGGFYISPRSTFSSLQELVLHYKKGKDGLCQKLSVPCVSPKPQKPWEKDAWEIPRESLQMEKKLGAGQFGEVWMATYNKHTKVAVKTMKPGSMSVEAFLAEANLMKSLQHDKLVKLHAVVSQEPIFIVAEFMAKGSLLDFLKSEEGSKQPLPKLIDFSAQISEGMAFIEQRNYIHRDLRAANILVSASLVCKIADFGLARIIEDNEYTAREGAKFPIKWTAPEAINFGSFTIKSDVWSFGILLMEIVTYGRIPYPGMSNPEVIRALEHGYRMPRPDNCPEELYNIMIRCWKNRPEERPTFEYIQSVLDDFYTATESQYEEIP
UniProt P08103, 76-524 Q521E/Q522E/Q523I: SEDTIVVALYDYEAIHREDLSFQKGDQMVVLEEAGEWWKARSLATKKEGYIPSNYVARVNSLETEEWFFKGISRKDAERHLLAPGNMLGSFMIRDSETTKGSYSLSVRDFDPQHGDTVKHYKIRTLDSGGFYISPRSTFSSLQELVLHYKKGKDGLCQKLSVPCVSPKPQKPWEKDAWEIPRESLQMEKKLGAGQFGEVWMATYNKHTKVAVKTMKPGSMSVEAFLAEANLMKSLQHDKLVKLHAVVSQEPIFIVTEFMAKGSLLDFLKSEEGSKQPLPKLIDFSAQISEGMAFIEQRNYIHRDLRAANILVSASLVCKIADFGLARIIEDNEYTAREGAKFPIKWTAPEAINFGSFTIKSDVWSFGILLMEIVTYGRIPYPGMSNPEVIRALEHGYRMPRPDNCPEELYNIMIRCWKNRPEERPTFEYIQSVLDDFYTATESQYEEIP
UniProt P08103, 76-524 E88T/A89S/I90P/H91F/R92P/E93W/T331A/Q521E/Q522E/Q523I: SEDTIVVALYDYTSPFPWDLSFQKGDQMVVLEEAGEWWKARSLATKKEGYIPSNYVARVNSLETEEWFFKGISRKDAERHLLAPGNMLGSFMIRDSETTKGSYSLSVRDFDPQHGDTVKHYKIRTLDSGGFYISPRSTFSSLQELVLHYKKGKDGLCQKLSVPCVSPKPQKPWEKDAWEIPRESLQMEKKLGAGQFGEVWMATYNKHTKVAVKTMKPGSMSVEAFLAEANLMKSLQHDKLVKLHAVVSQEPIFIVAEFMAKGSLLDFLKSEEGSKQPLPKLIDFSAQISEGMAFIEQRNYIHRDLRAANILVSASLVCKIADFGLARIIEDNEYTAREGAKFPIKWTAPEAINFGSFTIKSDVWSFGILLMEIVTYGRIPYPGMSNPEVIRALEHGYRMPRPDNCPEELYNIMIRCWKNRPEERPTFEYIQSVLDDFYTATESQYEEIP

What was measured:
Format in all cases: biochemical
Details in all cases: ATP at twice the Km, read-out: IC50, NaPP1
mHck-TA = biological target: T1, mHck-TA (Mus musculus, UniProt P08103, Q521E/Q522E/Q523I/T331A); experiment: Z'-Lyte in vitro kinase assay, mHck-TA alone
T1 construct: the N-terminal unique domain was replaced with a hexahistidine tag; hexahistidine (N); made in house; host or cells: Sf9 insect cells (baculovirus)
Description: (§1) Protein-tyrosine kinase assays were performed using the FRET-based Z'-Lyte kinase assay kit and Tyr-2 peptide substrate according to the manufacturer's instructions (Life Technologies) and our previous work. All assays were performed in quadruplicate in low-volume, non-binding 384-well plates (Corning). To determine the Km for ATP, time course experiments were run at fixed concentrations of substrate (1 μM) and kinase in the presence of an ATP concentration range from 0 to 500 μM. The Km for ATP was then calculated from a plot of ATP concentration against initial reaction velocity followed by non-linear regression analysis (GraphPad Prism). For inhibition experiments, the assay was first optimized to determine the amount of kinase or kinase plus Nef (1:10 molar ratio) necessary to phosphorylate ~50% of the Tyr-2 peptide substrate in the presence of an ATP concentration equal to twice the Km. […] Fluorescence was assessed at an excitation wavelength of 400 nm; coumarin fluorescence and the fluorescein FRET signal were monitored at 445 and 520 nm, respectively. […] Raw fluorescence values were corrected for background, and reaction endpoints calculated as emission ratios of coumarin fluorescence divided by the fluorescein FRET signal. […] IC50 values were calculated using a sigmoidal curve fit using GraphPad Prism. […]

mHck = biological target: T2, mHck (Mus musculus, UniProt P08103, Q521E/Q522E/Q523I); experiment: Z'-Lyte in vitro kinase assay, mHck alone
T2 construct: the N-terminal unique domain was replaced with a hexahistidine tag; hexahistidine (N); made in house; host or cells: Sf9 insect cells (baculovirus)
Description: as §1

mHck-TA-HART = biological target: T3, mHck-TA-HART (Mus musculus, UniProt P08103, A89S/E88T/E93W/H91F/I90P/Q521E/Q522E/Q523I/R92P/T331A); experiment: Z'-Lyte in vitro kinase assay, mHck-TA-HART alone
T3 construct: the N-terminal unique domain was replaced with a hexahistidine tag; hexahistidine (N); made in house; host or cells: Sf9 insect cells (baculovirus)
Description: as §1

`CC(C)(C)n1nc(-c2cccc3ccccc23)c2c(N)ncnc21` [NaPP1, reference compound] showed an IC50 (mHck-TA) of 53.3 ± 8.2 nM, an IC50 (mHck) greater than 1000 nM and an IC50 (mHck-TA-HART) of 8.5 ± 0.7 nM.
